# In PubChem BioAssay AID1502 (Sanford-Burnham Center for Chemical Genomics, 2009):
# Chains of the proteins cited; added tags and fusions are not shown.
# UniProt Q01196, whole entry, looked up: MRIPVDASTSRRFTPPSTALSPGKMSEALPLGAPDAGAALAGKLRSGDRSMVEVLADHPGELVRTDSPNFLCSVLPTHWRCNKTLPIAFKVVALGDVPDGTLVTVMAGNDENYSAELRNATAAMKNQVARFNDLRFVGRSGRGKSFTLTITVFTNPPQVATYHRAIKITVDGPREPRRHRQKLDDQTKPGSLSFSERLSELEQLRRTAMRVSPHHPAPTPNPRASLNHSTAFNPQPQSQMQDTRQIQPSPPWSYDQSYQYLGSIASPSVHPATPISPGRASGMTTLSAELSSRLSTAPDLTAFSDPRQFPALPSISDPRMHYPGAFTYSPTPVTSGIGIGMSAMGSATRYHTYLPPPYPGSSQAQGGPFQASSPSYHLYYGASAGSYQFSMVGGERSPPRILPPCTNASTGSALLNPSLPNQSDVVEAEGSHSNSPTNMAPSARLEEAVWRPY
# UniProt Q13951, whole entry, looked up: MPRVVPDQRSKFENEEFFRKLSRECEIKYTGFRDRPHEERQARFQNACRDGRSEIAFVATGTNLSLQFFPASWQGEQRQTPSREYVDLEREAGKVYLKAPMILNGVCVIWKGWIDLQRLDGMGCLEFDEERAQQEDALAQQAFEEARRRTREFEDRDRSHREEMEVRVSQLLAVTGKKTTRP
# The entries are a selection whose mix differs from that of the whole data set. Calls of active or inactive are those of the source. Rule as the data show it: active = inhibition above about 40%; inactive = the rest.
# Target: Runt-related transcription factor 1 (Homo sapiens) + Core-binding factor subunit beta (Homo sapiens) (UniProt Q01196+Q13951)
# Experiment: Runt domain/CBFb interaction disruptors – biochemical, TR-FRET (AID 1502)
# Conditions: TR-FRET RUNX1 Runt domain-CBFb binding; at 20 µM; hits give high values
smiles,measurement,value
Cc1cc(SC(NC(=O)c2ccc(F)cc2)C(Cl)(Cl)Cl)ncn1 (stereo unspecified),inhibition,inactive: -29.9%
